Measurements: patent publication US20150030601

Chains of the proteins cited; added tags and fusions are not shown.
NEDD8 (Neural precursor cell-Expressed Developmentally Downregulated 8), Q15843, UniProt Q15843, whole entry, looked up: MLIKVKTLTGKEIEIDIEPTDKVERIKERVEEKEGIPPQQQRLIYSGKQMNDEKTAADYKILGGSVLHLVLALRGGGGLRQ

B1: Recombinant NAE, wild type (NAE1 / tagged NAEβ), as used in the pyrophosphate exchange and transthiolation assays (protein)
chain 1: AQLGKLLKEQKYDRQLRLWGDHGQEALESAHVCLINATATGTEILKNLVLPGIGSFTIIDGNQVSGEDAGNNFFLQRSSIGKNRAEAAMEFLQELNSDVSGSFVEESPENLLDNDPSFFCRFTVVVATQLPESTSLRLADVLWNSQIPLLICRTYGLVGYMRIIIKEHPVIESHPDNALEDLRLDKPFPELREHFQSYDLDHMEKKDHSHTPWIVIIAKYLAQWYSETNGRIPKTYKEKEDFRDLIRQGILKNENGAPEDEENFEEAIKNVNTALNTTQIPSSIEDIFNDDRCINITKQTPSFWILARALKEFVAKEGQGNLPVRGTIPDMIADSGKYIKLQNVYREKAKKDAAAVGNHVAKLLQSIGQAPESISEKELKLLCSNSAFLRVVRCRSLAEEYGLDTINKDEIISSMDNPDNEIVLYLMLRAVDRFHKQQGRYPGVSNYQVEEDIGKLKSCLTGFLQEYGLSVMVKDDYVHEFCRYGAAEPHTIAAFLGGAAAQEVIKIITKQFVIFNNTYIYSGMSQTSATFQL
chain 2: ADGEEPEKKRRRIEELLAEKMAVDGGCGDTGDWEGRWNHVKKFLERSGPFTHPDFEPSTESLQFLLDTCKVLVIGAGGLGCELLKNLALSGFRQIHVIDMDTIDVSNLNRQFLFRPKDIGRPKAEVAAEFLNDRVPNCNVVPHFNKIQDFNDTFYRQFHIIVCGLDSIIARRWINGMLISLLNYEDGVLDPSSIVPLIDGGTEGFKGNARVILPGMTACIECTLELYPPQVNFPMCTIASMPRLPEHCIEYVRMLQWPKEQPFGEGVPLDGDDPEHIQWIFQKSLERASQYNIRGVTYRLTQGVVKRIIPAVASTNAVIAAVCATEVFKIATSAYIPLNNYLVFNDVDGLYTYTFEAERKENCPACSQLPQNIQFSPSAKLQEVLDYLTNSASLQMKSPAITATLEGKNRTLYLQSVTSIEERTRPNLSKTLKELGLVDGQELAVADVTTPQTVLFKLHFTS
B2: Recombinant NAE with NAEβ A171T, as used in the pyrophosphate exchange and transthiolation assays (protein)
chain 1: AQLGKLLKEQKYDRQLRLWGDHGQEALESAHVCLINATATGTEILKNLVLPGIGSFTIIDGNQVSGEDAGNNFFLQRSSIGKNRAEAAMEFLQELNSDVSGSFVEESPENLLDNDPSFFCRFTVVVATQLPESTSLRLADVLWNSQIPLLICRTYGLVGYMRIIIKEHPVIESHPDNALEDLRLDKPFPELREHFQSYDLDHMEKKDHSHTPWIVIIAKYLAQWYSETNGRIPKTYKEKEDFRDLIRQGILKNENGAPEDEENFEEAIKNVNTALNTTQIPSSIEDIFNDDRCINITKQTPSFWILARALKEFVAKEGQGNLPVRGTIPDMIADSGKYIKLQNVYREKAKKDAAAVGNHVAKLLQSIGQAPESISEKELKLLCSNSAFLRVVRCRSLAEEYGLDTINKDEIISSMDNPDNEIVLYLMLRAVDRFHKQQGRYPGVSNYQVEEDIGKLKSCLTGFLQEYGLSVMVKDDYVHEFCRYGAAEPHTIAAFLGGAAAQEVIKIITKQFVIFNNTYIYSGMSQTSATFQL
chain 2: ADGEEPEKKRRRIEELLAEKMAVDGGCGDTGDWEGRWNHVKKFLERSGPFTHPDFEPSTESLQFLLDTCKVLVIGAGGLGCELLKNLALSGFRQIHVIDMDTIDVSNLNRQFLFRPKDIGRPKAEVAAEFLNDRVPNCNVVPHFNKIQDFNDTFYRQFHIIVCGLDSIITRRWINGMLISLLNYEDGVLDPSSIVPLIDGGTEGFKGNARVILPGMTACIECTLELYPPQVNFPMCTIASMPRLPEHCIEYVRMLQWPKEQPFGEGVPLDGDDPEHIQWIFQKSLERASQYNIRGVTYRLTQGVVKRIIPAVASTNAVIAAVCATEVFKIATSAYIPLNNYLVFNDVDGLYTYTFEAERKENCPACSQLPQNIQFSPSAKLQEVLDYLTNSASLQMKSPAITATLEGKNRTLYLQSVTSIEERTRPNLSKTLKELGLVDGQELAVADVTTPQTVLFKLHFTS
B3: Recombinant NAE with NAEβ A171D, as used in the pyrophosphate exchange assay (protein)
chain 1: AQLGKLLKEQKYDRQLRLWGDHGQEALESAHVCLINATATGTEILKNLVLPGIGSFTIIDGNQVSGEDAGNNFFLQRSSIGKNRAEAAMEFLQELNSDVSGSFVEESPENLLDNDPSFFCRFTVVVATQLPESTSLRLADVLWNSQIPLLICRTYGLVGYMRIIIKEHPVIESHPDNALEDLRLDKPFPELREHFQSYDLDHMEKKDHSHTPWIVIIAKYLAQWYSETNGRIPKTYKEKEDFRDLIRQGILKNENGAPEDEENFEEAIKNVNTALNTTQIPSSIEDIFNDDRCINITKQTPSFWILARALKEFVAKEGQGNLPVRGTIPDMIADSGKYIKLQNVYREKAKKDAAAVGNHVAKLLQSIGQAPESISEKELKLLCSNSAFLRVVRCRSLAEEYGLDTINKDEIISSMDNPDNEIVLYLMLRAVDRFHKQQGRYPGVSNYQVEEDIGKLKSCLTGFLQEYGLSVMVKDDYVHEFCRYGAAEPHTIAAFLGGAAAQEVIKIITKQFVIFNNTYIYSGMSQTSATFQL
chain 2: ADGEEPEKKRRRIEELLAEKMAVDGGCGDTGDWEGRWNHVKKFLERSGPFTHPDFEPSTESLQFLLDTCKVLVIGAGGLGCELLKNLALSGFRQIHVIDMDTIDVSNLNRQFLFRPKDIGRPKAEVAAEFLNDRVPNCNVVPHFNKIQDFNDTFYRQFHIIVCGLDSIIDRRWINGMLISLLNYEDGVLDPSSIVPLIDGGTEGFKGNARVILPGMTACIECTLELYPPQVNFPMCTIASMPRLPEHCIEYVRMLQWPKEQPFGEGVPLDGDDPEHIQWIFQKSLERASQYNIRGVTYRLTQGVVKRIIPAVASTNAVIAAVCATEVFKIATSAYIPLNNYLVFNDVDGLYTYTFEAERKENCPACSQLPQNIQFSPSAKLQEVLDYLTNSASLQMKSPAITATLEGKNRTLYLQSVTSIEERTRPNLSKTLKELGLVDGQELAVADVTTPQTVLFKLHFTS
B4: Recombinant NAE with NAEβ N209K, as used in the pyrophosphate exchange and transthiolation assays (protein)
chain 1: AQLGKLLKEQKYDRQLRLWGDHGQEALESAHVCLINATATGTEILKNLVLPGIGSFTIIDGNQVSGEDAGNNFFLQRSSIGKNRAEAAMEFLQELNSDVSGSFVEESPENLLDNDPSFFCRFTVVVATQLPESTSLRLADVLWNSQIPLLICRTYGLVGYMRIIIKEHPVIESHPDNALEDLRLDKPFPELREHFQSYDLDHMEKKDHSHTPWIVIIAKYLAQWYSETNGRIPKTYKEKEDFRDLIRQGILKNENGAPEDEENFEEAIKNVNTALNTTQIPSSIEDIFNDDRCINITKQTPSFWILARALKEFVAKEGQGNLPVRGTIPDMIADSGKYIKLQNVYREKAKKDAAAVGNHVAKLLQSIGQAPESISEKELKLLCSNSAFLRVVRCRSLAEEYGLDTINKDEIISSMDNPDNEIVLYLMLRAVDRFHKQQGRYPGVSNYQVEEDIGKLKSCLTGFLQEYGLSVMVKDDYVHEFCRYGAAEPHTIAAFLGGAAAQEVIKIITKQFVIFNNTYIYSGMSQTSATFQL
chain 2: ADGEEPEKKRRRIEELLAEKMAVDGGCGDTGDWEGRWNHVKKFLERSGPFTHPDFEPSTESLQFLLDTCKVLVIGAGGLGCELLKNLALSGFRQIHVIDMDTIDVSNLNRQFLFRPKDIGRPKAEVAAEFLNDRVPNCNVVPHFNKIQDFNDTFYRQFHIIVCGLDSIIARRWINGMLISLLNYEDGVLDPSSIVPLIDGGTEGFKGKARVILPGMTACIECTLELYPPQVNFPMCTIASMPRLPEHCIEYVRMLQWPKEQPFGEGVPLDGDDPEHIQWIFQKSLERASQYNIRGVTYRLTQGVVKRIIPAVASTNAVIAAVCATEVFKIATSAYIPLNNYLVFNDVDGLYTYTFEAERKENCPACSQLPQNIQFSPSAKLQEVLDYLTNSASLQMKSPAITATLEGKNRTLYLQSVTSIEERTRPNLSKTLKELGLVDGQELAVADVTTPQTVLFKLHFTS
B5: Recombinant NAE with NAEβ E204K, as used in the pyrophosphate exchange and transthiolation assays (protein)
chain 1: AQLGKLLKEQKYDRQLRLWGDHGQEALESAHVCLINATATGTEILKNLVLPGIGSFTIIDGNQVSGEDAGNNFFLQRSSIGKNRAEAAMEFLQELNSDVSGSFVEESPENLLDNDPSFFCRFTVVVATQLPESTSLRLADVLWNSQIPLLICRTYGLVGYMRIIIKEHPVIESHPDNALEDLRLDKPFPELREHFQSYDLDHMEKKDHSHTPWIVIIAKYLAQWYSETNGRIPKTYKEKEDFRDLIRQGILKNENGAPEDEENFEEAIKNVNTALNTTQIPSSIEDIFNDDRCINITKQTPSFWILARALKEFVAKEGQGNLPVRGTIPDMIADSGKYIKLQNVYREKAKKDAAAVGNHVAKLLQSIGQAPESISEKELKLLCSNSAFLRVVRCRSLAEEYGLDTINKDEIISSMDNPDNEIVLYLMLRAVDRFHKQQGRYPGVSNYQVEEDIGKLKSCLTGFLQEYGLSVMVKDDYVHEFCRYGAAEPHTIAAFLGGAAAQEVIKIITKQFVIFNNTYIYSGMSQTSATFQL
chain 2: ADGEEPEKKRRRIEELLAEKMAVDGGCGDTGDWEGRWNHVKKFLERSGPFTHPDFEPSTESLQFLLDTCKVLVIGAGGLGCELLKNLALSGFRQIHVIDMDTIDVSNLNRQFLFRPKDIGRPKAEVAAEFLNDRVPNCNVVPHFNKIQDFNDTFYRQFHIIVCGLDSIIARRWINGMLISLLNYEDGVLDPSSIVPLIDGGTKGFKGNARVILPGMTACIECTLELYPPQVNFPMCTIASMPRLPEHCIEYVRMLQWPKEQPFGEGVPLDGDDPEHIQWIFQKSLERASQYNIRGVTYRLTQGVVKRIIPAVASTNAVIAAVCATEVFKIATSAYIPLNNYLVFNDVDGLYTYTFEAERKENCPACSQLPQNIQFSPSAKLQEVLDYLTNSASLQMKSPAITATLEGKNRTLYLQSVTSIEERTRPNLSKTLKELGLVDGQELAVADVTTPQTVLFKLHFTS
B6: Recombinant NAE with NAEβ G201V, as used in the pyrophosphate exchange and transthiolation assays (protein)
chain 1: AQLGKLLKEQKYDRQLRLWGDHGQEALESAHVCLINATATGTEILKNLVLPGIGSFTIIDGNQVSGEDAGNNFFLQRSSIGKNRAEAAMEFLQELNSDVSGSFVEESPENLLDNDPSFFCRFTVVVATQLPESTSLRLADVLWNSQIPLLICRTYGLVGYMRIIIKEHPVIESHPDNALEDLRLDKPFPELREHFQSYDLDHMEKKDHSHTPWIVIIAKYLAQWYSETNGRIPKTYKEKEDFRDLIRQGILKNENGAPEDEENFEEAIKNVNTALNTTQIPSSIEDIFNDDRCINITKQTPSFWILARALKEFVAKEGQGNLPVRGTIPDMIADSGKYIKLQNVYREKAKKDAAAVGNHVAKLLQSIGQAPESISEKELKLLCSNSAFLRVVRCRSLAEEYGLDTINKDEIISSMDNPDNEIVLYLMLRAVDRFHKQQGRYPGVSNYQVEEDIGKLKSCLTGFLQEYGLSVMVKDDYVHEFCRYGAAEPHTIAAFLGGAAAQEVIKIITKQFVIFNNTYIYSGMSQTSATFQL
chain 2: ADGEEPEKKRRRIEELLAEKMAVDGGCGDTGDWEGRWNHVKKFLERSGPFTHPDFEPSTESLQFLLDTCKVLVIGAGGLGCELLKNLALSGFRQIHVIDMDTIDVSNLNRQFLFRPKDIGRPKAEVAAEFLNDRVPNCNVVPHFNKIQDFNDTFYRQFHIIVCGLDSIIARRWINGMLISLLNYEDGVLDPSSIVPLIDVGTEGFKGNARVILPGMTACIECTLELYPPQVNFPMCTIASMPRLPEHCIEYVRMLQWPKEQPFGEGVPLDGDDPEHIQWIFQKSLERASQYNIRGVTYRLTQGVVKRIIPAVASTNAVIAAVCATEVFKIATSAYIPLNNYLVFNDVDGLYTYTFEAERKENCPACSQLPQNIQFSPSAKLQEVLDYLTNSASLQMKSPAITATLEGKNRTLYLQSVTSIEERTRPNLSKTLKELGLVDGQELAVADVTTPQTVLFKLHFTS

Target: NEDD8 (Neural precursor cell-Expressed Developmentally Downregulated 8), Q15843

| Protein | KM NEDD8 (pyrophosphate exchange assay) |
| --- | --- |
| B1 | 0.044 µM |
| B2 | 0.08 µM |
| B3 | 0.016 µM |
| B4 | 0.43 µM |
| B5 | 0.48 µM |
| B6 | 3.5 µM |
